Results on one compound are retold here after patent publication US20220017471A1, “FUNCTIONALITY INDEPENDENT LABELING OF ORGANIC COMPOUNDS” (Shanghai Tech University, priority 2018, published 2022).

Protein sequences, listed by entry. Tags and fused reporters are not part of them.
UniProt P09874, whole entry: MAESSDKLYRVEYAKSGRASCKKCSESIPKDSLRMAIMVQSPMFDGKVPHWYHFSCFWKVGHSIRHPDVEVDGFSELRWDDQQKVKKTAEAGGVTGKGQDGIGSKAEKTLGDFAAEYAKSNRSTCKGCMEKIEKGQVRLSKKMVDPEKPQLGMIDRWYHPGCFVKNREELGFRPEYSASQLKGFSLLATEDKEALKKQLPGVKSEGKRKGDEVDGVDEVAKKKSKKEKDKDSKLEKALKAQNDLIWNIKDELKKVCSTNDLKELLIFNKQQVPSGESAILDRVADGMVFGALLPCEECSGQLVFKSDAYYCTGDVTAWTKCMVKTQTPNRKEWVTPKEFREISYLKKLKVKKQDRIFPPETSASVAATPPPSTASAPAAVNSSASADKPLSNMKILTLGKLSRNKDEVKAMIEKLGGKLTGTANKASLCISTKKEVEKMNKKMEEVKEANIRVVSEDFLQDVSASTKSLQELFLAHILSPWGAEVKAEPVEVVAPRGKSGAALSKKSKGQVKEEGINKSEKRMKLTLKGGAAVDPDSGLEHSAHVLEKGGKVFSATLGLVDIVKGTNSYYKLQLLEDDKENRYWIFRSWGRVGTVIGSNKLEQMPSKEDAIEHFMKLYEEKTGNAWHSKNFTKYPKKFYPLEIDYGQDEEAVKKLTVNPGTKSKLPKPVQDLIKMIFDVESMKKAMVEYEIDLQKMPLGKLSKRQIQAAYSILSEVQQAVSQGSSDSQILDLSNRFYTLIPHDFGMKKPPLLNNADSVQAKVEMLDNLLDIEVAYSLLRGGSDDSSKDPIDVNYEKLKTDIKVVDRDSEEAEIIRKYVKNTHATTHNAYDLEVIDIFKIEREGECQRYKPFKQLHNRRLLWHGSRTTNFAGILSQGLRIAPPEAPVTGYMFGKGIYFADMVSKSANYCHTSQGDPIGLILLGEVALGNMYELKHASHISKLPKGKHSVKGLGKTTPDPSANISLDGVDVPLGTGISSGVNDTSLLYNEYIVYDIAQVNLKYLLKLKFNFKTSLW

Usually IC50 stands for the concentration that inhibits the measured activity by half.

In experiment [1] the target is poly [ADP-ribose] polymerase 1 (PARP1) (Homo sapiens, UniProt P09874). As to the kind of experiment: nDEL affinity selection against PARP-1 (enrichment fold by deep sequencing). To be noted: ratio of normalized sequencing counts in presence and absence of target protein; DNA-encoded compound. Format: binding.
In a further experiment the target is human PARP1 (Homo sapiens, UniProt P09874). The experiment is described as follows: PARP-1 autoribosylation based enzymatic assay (chemiluminescence). Format: biochemical. Particulars: read-out: PARP-1 inhibition IC50; auto-ribosylation assay, FIG. 22(b).

Regarding `O=C(Cc1cccc(O)c1)N1CCN(C(=O)c2cc(Cc3n[nH]c(=O)c4ccccc34)ccc2F)CC1`, the “Fold Change, enrichment folds for PARP-1 binder selection” value in experiment [1] came out at 2.34. Moreover, the IC50 at human PARP1 amounted to 2.5 nM.
